# In patent publication US20070184519A1 (published 2007):
# Key:
# [1] = target: DRB1*1302 (human, UniProt P01903 26-216, limits assumed); assay: competition vs 125I probe peptide, purified MHC II
# [2] = target: DRB1*0101 (human, UniProt P01903 26-216, limits assumed); assay: competition vs 125I probe peptide, purified MHC II
# [3] = target: DRB1*0405 (human, UniProt P01903 26-216, limits assumed); assay: competition vs 125I probe peptide, purified MHC II
# [4] = target: DRB1*0701 (human, UniProt P01903 26-216, limits assumed); assay: competition vs 125I probe peptide, purified MHC II
# [5] = target: DRB1*1101 (human, UniProt P01903 26-216, limits assumed); assay: competition vs 125I probe peptide, purified MHC II
# [6] = target: HLA-DR DRB1*0901 (human); assay: competition with 125I probe, purified MHC II
# [7] = target: HLA-DR DRB1*1302 (human); assay: competition with 125I probe, purified MHC II
# [8] = target: HLA-DR DRB1*0802 (human); assay: competition with 125I probe, purified MHC II
# [9] = target: HLA-DR DRB1*1101 (human); assay: competition with 125I probe, purified MHC II
# [10] = target: HLA-DR molecule DRB1*0301 (human); assay: competition vs 125I probe, purified HLA
# [11] = target: HLA-DR molecule DRB1*1302 (human); assay: competition vs 125I probe, purified HLA
# [12] = target: HLA-DR molecule DRB1*1501 (human); assay: competition vs 125I probe, purified HLA
# [13] = target: HLA-DR molecule DRB1*0405 (human); assay: competition vs 125I probe, purified HLA
# [14] = target: HLA-DR molecule DRB1*0901 (human); assay: competition vs 125I probe, purified HLA
# [15] = target: HLA-DR molecule DRB1*1101 (human); assay: competition vs 125I probe, purified HLA
# [16] = target: HLA-DR molecule DRB1*0401 (human); assay: competition vs 125I probe, purified HLA
# [17] = target: HLA-DR molecule DRB1*0404 (human); assay: competition vs 125I probe, purified HLA
# [18] = target: HLA-DR molecule DRB1*0701 (human); assay: competition vs 125I probe, purified HLA
# [19] = target: HLA-DR molecule DRB1*0101 (human); assay: competition vs 125I probe, purified HLA
binder,measurement,setting,value
DTFRKLFGVYSNFLR,IC50,[1],467 nM
DTFRKLFRDYSNFLR,IC50,[2],196 nM
same,IC50,[3],966 nM
same,IC50,[4],17700 nM
DTFRKLFRVGSNFLR,IC50,[5],2.3 nM
DTFRKLFRVRSNFLR,IC50,[5],0.91 nM
RDTGILDSIGRFFGGDRGAP [Hu MBP 33-52],IC50,[6],8900 nM
same,IC50,[7],828 nM
same,IC50,[8],6320 nM
same,IC50,[9],169 nM
GARSLTTLLRALGAQ [EPO 101 analog GARSLTTLLRALGAQ],IC50,[10],19500 nM
same,IC50,[11],4630 nM
same,IC50,[12],282 nM
GDRSLTTLLRALGAQ [EPO 101 analog GDRSLTTLLRALGAQ],IC50,[11],6820 nM
same,IC50,[13],8720 nM
GLRDLTTLLRALGAQ [EPO 101 analog GLRDLTTLLRALGAQ],IC50,[14],2530 nM
same,IC50,[15],0.99 nM
same,IC50,[10],4460 nM
same,IC50,[11],4360 nM
GLRSLDTLLRALGAQ [EPO 101 analog GLRSLDTLLRALGAQ],IC50,[14],12300 nM
same,IC50,[10],303 nM
GLRSLTGLLRALGAQ [EPO 101 analog GLRSLTGLLRALGAQ],IC50,[14],2640 nM
same,IC50,[15],4.6 nM
same,IC50,[11],697 nM
same,IC50,[16],2510 nM
GLRSLTTDLRALGAQ [EPO 101 analog GLRSLTTDLRALGAQ],IC50,[17],67 nM
GLRSLTTLDRALGAQ [EPO 101 analog GLRSLTTLDRALGAQ],IC50,[14],3230 nM
same,IC50,[11],5140 nM
GLRSLTTLHRALGAQ [EPO 101 analog GLRSLTTLHRALGAQ],IC50,[15],0.53 nM
same,IC50,[18],6070 nM
GLRSLTTLKRALGAQ [EPO 101 analog GLRSLTTLKRALGAQ],IC50,[15],0.58 nM
GLRSLTTLQRALGAQ [EPO 101 analog GLRSLTTLQRALGAQ],IC50,[19],83 nM
same,IC50,[13],8780 nM
GLRSLTTLRRALGAQ [EPO 101 analog GLRSLTTLRRALGAQ],IC50,[13],706 nM
GQRSLTTLLRALGAQ [EPO 101 analog GQRSLTTLLRALGAQ],IC50,[11],6050 nM
same,IC50,[16],345 nM
